Measured values published in patent publication US8492564B2 (priority 2008, dated 2013).

Target: hKOPR (Homo sapiens (Human), UniProt P41145)
Format: biochemical

| Compound | Efficacy (Percent of the maximal effect of U50,488H) [%] | agonist properties in the [35S]GTPγS assay | effect on [35S]GTPγS binding induced by U50,488 |
| --- | --- | --- | --- |
| COC(=O)[C@@H]1C[C@H](OC(C)=O)C(=O)[C@H]2[C@@]1(C)CCC1C(=O)O[C@@H](c3ccoc3)C[C@@]12C (stereo partly drawn) [Compound 6, 12-epi-salvinorin A] | 67 ± 5 | partial agonist properties | significantly reduced |
| COC(=O)[C@@H]1C[C@H](OC(C)=O)C(=O)[C@H]2[C@@]1(C)CC[C@H]1C(=O)O[C@H](c3ccoc3)C[C@]21C [Salvinorin A, salvinorin A] | 105 ± 4 |  |  |
